{"source": "paper PMC4057808", "about": "“Molecular characterization of Clonorchis sinensis secretory myoglobin: Delineating its role in anti-oxidative survival” (Parasites & Vectors, 2014)", "test_system": "CCn1c(=NN=c2sc3cc(S(=O)(=O)O)ccc3n2CC)sc2cc(S(=O)(=O)O)ccc21", "experiment": "purified protein", "details": "H2O2 (0.2 mM in methods, ~20 μM in table note), 50 mM sodium phosphate pH 7.0, 20 °C, ABTS varied 20-300 mM as printed"}
{"substance": "rCsMb (CsMb, Clonorchis sinensis myoglobin) (Clonorchis sinensis)", "values": [{"measurement": "Km", "value": 66, "unit": "mM"}]}
